{
  "source": "paper PMC11253567",
  "about": "“Drug repurposing of pyrazolotriazine derivatives as potential anti-SARS-CoV-2 agents: in vitro and in silico studies” (BMC Chemistry, 2024)",
  "origin": "cited, not measured here",
  "test_system": "SARS-CoV-2 (hCoV-19/Egypt/NRC-03/2020)",
  "details": "reference drug; cited from earlier work",
  "data": [
    {"smiles": "CCC(CC)COC(=O)[C@H](C)N[P@](=O)(OC[C@H]1O[C@@](C#N)(c2ccc3c(N)ncnn23)[C@H](O)[C@@H]1O)Oc1ccccc1", "note": "[Remdesivir]", "values": [
      {"measurement": "SI (CC50/IC50)", "value": 17.18}
    ]}
  ]
}
